Screens deposited in PubChem BioAssay by Broad Institute.
Cneo AK release = Cryptococcus neoformans cell lysis inducers, primary screen, AK release luminescence, single concentration; C. neoformans lysis, adenylate kinase release luminescence, 4 h; normalised: neutral wells 0, clomiphene wells 100; lysis activity, % at 15 µM; 0.2% of 360,000 active; AID 651654, 2012;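 active means mean lysis activity across replicates of at least 80%, whatever share of replicates individually reach that level; inactive means mean lysis activity below 80%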
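read-out = cell lysis signal | test system = log-phase Cryptococcus neoformans yeast cells | input = cells at 5 × 10^6 per mL | medium = fresh YPD growth medium | signal = luminescent adenylate kinase detection reagent | timing = 4 h at 37 °C static, read 1 h later | dosing = single dose | controls = Clomiphene as positive lysis control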
Statin myotox sup = suppressors of statin myotoxicity in C2C12 myotubes, primary screen, cell-based, single point, plate reader. C2C12 myotubes + simvastatin, ATP luminescence, 48 h; scaled: DMSO 0, geranylgeraniol control 100. rescue of ATP level, % at 7.49 µM. 0.78% of 330,000 active;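 active means mean ATP rescue above about 67%, or every replicate alone reaching that limit, limit read from the data, passing the limit was not always enough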;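 further: myotubes were challenged with 10 µM simvastatin during compound exposure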
CDK5 inh = inhibitors of human CDK5/p35 kinase, primary screen, biochemical, single concentration; Cyclin-dependent kinase 5 (Homo sapiens) + Cyclin-dependent kinase 5 activator 1 (Homo …; Recombinant CDK5/p35, ADP-Glo luminescence, 60 min; inhibition, % at 10 µM; 0.01% of 330,000 active; AID 488839, 2010;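 active means highest replicate inhibition of at least 50% and at least 75% of replicates reaching 50%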;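 further: plate controls were DMSO neutral control for no effect and GW8510 at 10 µM for full effect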
Rtt109 Vps75 = inhibitors of C. albicans Rtt109/Vps75 HAT, primary screen, biochemical, ThioGlo CoA-SH fluorescence, plate reader | Histone acetyltransferase RTT109 (Candida albicans (strain SC5314 / ATCC MYA-2876)), … | purified Rtt109/Vps75, 4 h | inhibition, % at 34.9 µM | 0.16% of 330,000 active | AID 540336, 2011;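 active means inhibition of at least 50% in every replicate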
Yeast UUG start = modulators of start codon recognition fidelity in yeast; AID 602363; activity score, % at 18.7 µM; S. cerevisiae UUG-firefly luciferase reporter, luminescence/redox ratio; actives 0.13% (n = 350,000);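 active = replicate mean at a twofold rise or more, about +100% in these data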;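 note: firefly luciferase made from a UUG start codon reports start codon fidelity; reporter light over untreated wells divided by growth signal over untreated wells; some hits fall short of that in this replicate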
Numbers without * were called inactive; nt = no result given; ! = not confirmed by another sample. The list is not random: actives were taken first. Their share in the collection is about 1%.

SMILES | Cneo AK release | Statin myotox sup | CDK5 inh | Rtt109 Vps75 | Yeast UUG start
COc1ccc(-c2cnc3c(c2)C(=O)N([C@H](C)CO)C[C@H](C)[C@H](CN(C)S(=O)(=O)c2ccc(F)cc2)O3)cc1 | 7 | 102* | nt | nt | 12
C[C@@H]1CN([C@H](C)CO)C(=O)c2cc(-c3ccc(F)cc3)cnc2O[C@H]1CN(C)CC1CCCCC1 | 106* | -36 | nt | nt | 12
COc1ccc(-c2cnc3c(c2)C(=O)N([C@@H](C)CO)C[C@H](C)[C@H](CN(C)S(C)(=O)=O)O3)cc1 | -8 | -6 | nt | nt | -3
C[C@@H]1CN([C@@H](C)CO)C(=O)c2cc(-c3ccc(C#N)cc3)cnc2O[C@@H]1CN(C)C(=O)c1ccccc1 | -4 | 4 | nt | nt | -1
C[C@@H]1CCCCO[C@H](CN(C)CC2CCCCC2)[C@@H](C)CN([C@H](C)CO)C(=O)c2cc(NC(=O)c3ccccc3)ccc2O1 | -1 | nt | nt | nt | 0
Cc1ccc(S(=O)(=O)N(C)C[C@@H]2Oc3ncc(Br)cc3C(=O)N([C@@H](C)CO)C[C@H]2C)cc1 | 91* | 9 | nt | nt | 13
Cc1ccc(S(=O)(=O)N(C)C[C@H]2Oc3ncc(Br)cc3C(=O)N([C@H](C)CO)C[C@H]2C)cc1 | 0 | -3 | nt | nt | 6
COc1cccc(-c2cnc3c(c2)C(=O)N([C@H](C)CO)C[C@H](C)[C@H](CN(C)Cc2cccc(C)c2)O3)c1 | 0 | 117* | nt | nt | 5
C[C@@H]1CN([C@H](C)CO)S(=O)(=O)c2ccc(C3=CCCC3)cc2O[C@H]1CN(C)C(=O)C1CC1 | nt | -3 | nt | nt | nt
CCC(=O)N1[C@@H](CO)[C@@H](c2ccc(-c3ccc(F)cc3)cc2)[C@@H]1CNC(C)=O | 0 | -7 | nt | nt | -2
C/C=C/c1ccc([C@@H]2[C@@H](CO)N(C(=O)CC)[C@H]2CNC(=O)C2CC2)cc1 | -1 | -5 | nt | nt | 14
C/C=C/c1ccc([C@@H]2[C@@H](CNC(=O)C3CC3)N(C(=O)CC)[C@H]2CO)cc1 | 93* | 1 | nt | nt | 20
CCC(=O)N1[C@H](CO)[C@H](c2ccc(-c3ccc(F)cc3)cc2)[C@@H]1CNC(C)=O | 82* | 5 | nt | nt | -4
CC(=O)NC[C@H]1[C@H](c2ccc(C3=CCCC3)cc2)[C@@H](CO)N1C(=O)NC(C)C | 1 | 1 | nt | nt | 13
CC(=O)NC[C@@H]1[C@@H](c2ccc(C3=CCCC3)cc2)[C@@H](CO)N1C(=O)NC(C)C | 112* | -8 | nt | nt | 24
CO[C@@H](CN(C)Cc1cc(F)ccc1F)[C@@H](C)CN(C(=O)Nc1ccc(C(F)(F)F)cc1)[C@@H](C)CO | 3 | -19 | nt | nt | nt
CN1C(=O)c2cc(NC(=O)c3ccc(F)cc3)ccc2OC[C@@H]2O[C@H](CC(=O)NCC3CC3)CC[C@@H]21 | -1 | -12 | nt | nt | -6
C[C@@H]1CN([C@@H](C)CO)S(=O)(=O)c2ccc(-c3ccccc3)cc2O[C@@H]1CN(C)C(=O)Cc1ccccc1 | -11 | -83 | nt | nt | 16
CC(=O)Nc1nc2n(n1)C(c1ccccc1)C=C(c1ccccc1)N2 (configuration not stated) | 1 | -4 | 0 | nt | -12
CC(=O)Nc1nc2n(n1)C(c1ccc(F)cc1)C=C(c1ccccc1)N2 (configuration not stated) | 1 | 133* | 0 | -421 | -18
CO[C@H]1CN(C)C(=O)c2ccc(NS(=O)(=O)c3ccc(C)cc3)cc2OC[C@@H](C)N(C(=O)NC(C)C)C[C@H]1C | nt | -23 | nt | nt | nt
COc1cccc(NC(=S)NC(=O)Cc2ccc(Cl)cc2)c1 | 83* | -3 | 2 | -4 | -20
CNC[C@H]1OCCCC[C@@H](C)Oc2ccc(NC(=O)NC(C)C)cc2C(=O)N([C@H](C)CO)C[C@@H]1C | -1 | nt | nt | nt | nt
CNC[C@H]1OCCCC[C@@H](C)Oc2ccc(NC(=O)Cc3ccccc3)cc2C(=O)N([C@@H](C)CO)C[C@H]1C | 14 | 13 | nt | nt | 31
CNC[C@@H]1OCCCC[C@H](C)Oc2ccc(NC(=O)NC(C)C)cc2C(=O)N([C@H](C)CO)C[C@H]1C | 117* | nt | nt | nt | nt
CNC[C@H]1OCCCC[C@H](C)Oc2ccc(NC(=O)CCCN(C)C)cc2C(=O)N([C@H](C)CO)C[C@@H]1C | 107*! | 10 | nt | nt | 6
CNC[C@H]1OCCCC[C@H](C)Oc2ccc(NC(=O)Cc3ccccc3)cc2C(=O)N([C@H](C)CO)C[C@@H]1C | 108* | -17 | nt | nt | 14
O=C(C[C@@H]1CC[C@H]2[C@@H](COC[C@@H](O)CN2Cc2nccs2)O1)NCc1ccc(Cl)cc1 | -4 | 4 | nt | nt | -2
C[C@@H](NC(=O)C[C@@H]1C=C[C@H](NC(=O)C2CC2)[C@@H](CO)O1)c1ccccc1 | -1 | -4 | nt | nt | -3
CO[C@H](CN(C)C(=O)C1CCOCC1)[C@H](C)CN(C(=O)Nc1ccc(F)cc1)[C@@H](C)CO | -1 | 5 | nt | nt | nt
C[C@@H]1CN([C@@H](C)CO)C(=O)c2cccc(NC(=O)C3CC3)c2O[C@@H]1CN(C)S(=O)(=O)c1ccc(Cl)cc1 | 8 | 13 | nt | nt | -14
CCn1ncc(Br)c1C(=O)Nc1cc(C(=O)OC)ccc1C(=O)OC | nt | 123* | -1 | -5 | nt
CCn1ncc(Br)c1C(=O)Nc1ccccc1OC | nt | nt | -1 | -1 | nt
CN1CCC(=NNC(=O)CN(c2ccc(Oc3ccccc3)cc2)S(C)(=O)=O)CC1 | -1 | 110* | -1 | -3 | -8
CC1CCN(C(c2ccccc2)c2nnnn2C(C)(C)C)CC1 (configuration not stated) | 2 | 106* | -1 | 6 | -13
COc1ccc(-c2ccc3c(c2)O[C@H](CN(C)C(C)=O)[C@@H](C)CN([C@H](C)CO)S3(=O)=O)cc1 | -1 | 11 | nt | nt | 53

Ordered by number of heavy atoms (falling): part of the list above
SMILES | Cneo AK release | Statin myotox sup | CDK5 inh | Rtt109 Vps75 | Yeast UUG start
CNC[C@H]1OCCCC[C@H](C)Oc2ccc(NC(=O)Cc3ccccc3)cc2C(=O)N([C@H](C)CO)C[C@@H]1C | 108* | -17 | nt | nt | 14
C[C@@H]1CN([C@@H](C)CO)C(=O)c2cccc(NC(=O)C3CC3)c2O[C@@H]1CN(C)S(=O)(=O)c1ccc(Cl)cc1 | 8 | 13 | nt | nt | -14
CO[C@H](CN(C)C(=O)C1CCOCC1)[C@H](C)CN(C(=O)Nc1ccc(F)cc1)[C@@H](C)CO | -1 | 5 | nt | nt | nt
O=C(C[C@@H]1CC[C@H]2[C@@H](COC[C@@H](O)CN2Cc2nccs2)O1)NCc1ccc(Cl)cc1 | -4 | 4 | nt | nt | -2
CCn1ncc(Br)c1C(=O)Nc1cc(C(=O)OC)ccc1C(=O)OC | nt | 123* | -1 | -5 | nt

Remaining list, next part.
SMILES | Cneo AK release | Statin myotox sup | CDK5 inh | Rtt109 Vps75 | Yeast UUG start
Cc1noc(C)c1NC(=O)Nc1ccc2c(c1)CC(=O)N([C@@H](C)CO)C[C@H](C)[C@@H](CN(C)S(=O)(=O)c1cccs1)O2 | 3 | -1 | nt | nt | 0
COc1ccc(CN(C)C[C@@H]2OCCCC[C@H](C)Oc3ccc(N(C)C)cc3C(=O)N([C@H](C)CO)C[C@@H]2C)cc1 | 94* | -9 | nt | nt | 33
C[C@@H]1CCCCO[C@@H](CN(C)Cc2ccccc2)[C@H](C)CN([C@H](C)CO)C(=O)c2cc(N(C)C)ccc2O1 | nt | 40 | nt | nt | nt
C[C@@H]1CCCCO[C@H](CN(C)Cc2ccncc2)[C@H](C)CN([C@@H](C)CO)C(=O)c2cc(NC(=O)Nc3ccccc3)ccc2O1 | -3 | nt | nt | nt | nt
C[C@@H]1CCCCO[C@H](CN(C)Cc2ccncc2)[C@@H](C)CN([C@H](C)CO)C(=O)c2cc(N(C)C)ccc2O1 | 110* | 0 | nt | nt | nt
